In assay [1] the target is T1, HLA-DQ2.5:DQ2.5-glia-α2 (human; wheat).
T1 chain 1: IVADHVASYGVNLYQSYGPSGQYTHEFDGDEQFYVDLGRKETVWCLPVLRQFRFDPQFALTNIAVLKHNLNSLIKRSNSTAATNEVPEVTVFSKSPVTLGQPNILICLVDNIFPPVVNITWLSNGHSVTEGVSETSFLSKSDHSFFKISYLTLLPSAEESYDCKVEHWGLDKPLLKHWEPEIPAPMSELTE
T1 chain 2: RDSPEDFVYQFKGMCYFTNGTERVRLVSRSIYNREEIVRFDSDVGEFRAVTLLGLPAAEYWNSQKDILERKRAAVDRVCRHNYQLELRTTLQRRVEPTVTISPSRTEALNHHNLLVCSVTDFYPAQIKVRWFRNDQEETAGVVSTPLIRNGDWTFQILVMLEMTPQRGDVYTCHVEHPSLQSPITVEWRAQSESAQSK
T1 chain 3: PQPELPYPQPE
Description: SPR single cycle, from on- and off-rates, mean of 2.

Assay [2] deals with T1, HLA-DQ2.5:DQ2.5-glia-α2. Description: SPR single cycle kinetics.
For assay [3], the target named is T1, HLA-DQ2.5:DQ2.5-glia-α2. Description: SPR kinetics on captured pMHC, 1:1 Langmuir.
Assay [4] concerns the target T1, HLA-DQ2.5:DQ2.5-glia-α2. Description: SPR, Fab, mean of the runs.
Assay [5] deals with T2, HLA-DQ2.5:DQ2.5-glia-α1a (human; wheat).
T2 chain 1: T1 chain 1
T2 chain 2: T1 chain 2
T2 chain 3: QLQPFPQPELPY
Description: SPR kinetics on captured pMHC, 1:1 Langmuir.

For assay [6], the target named is T2, HLA-DQ2.5:DQ2.5-glia-α1a. As to the kind of experiment: SPR, Fab, mean of the runs.
In assay [7] the target is T2, HLA-DQ2.5:DQ2.5-glia-α1a. As to the kind of experiment: SPR, Fab.
The target of assay [8] is T2, HLA-DQ2.5:DQ2.5-glia-α1a. Description: SPR steady state from single cycle runs, scFv over captured pMHC.
The target in assay [9] is T2, HLA-DQ2.5:DQ2.5-glia-α1a. Description: SPR, 0.25 µM hIgG1 or scFv over captured pMHC.

The values that follow come from patent US20210147552A1 (UNIVERSITETET I OSLO, published 2021).

Changes are numbered by the printed parent chain. In names and notes the source's numbering stands. Several values for one entry are separate records, joined by “and”; a condition that tells them apart may be missing. Equal values may be shown once.

B1: 217 scFv (scFv, V domains shown)
VH: QVQLVQSGAEVKKPGSSVKVSCKASGGTFSSYAISWVRQAPGQGLEWMGGIIPIFGTANYAQKFQGRVTITADESTSTAYMELSSLRSEDTAVYYCARGAIGVFSGYFDYWGQGTLVTVSS
VL: not shown
notes: scFv; also called scFv 17
As for B1, the dissociation constant Kd in the assay with HLA-DQ2.5:DQ2.5-glia-α2 [1] amounted to 5080 nM; with HLA-DQ2.5:DQ2.5-glia-α2 [2], 5000 nM.

B2: 221 scFv (scFv, V domains shown)
VH: QVQLVESGAEVKKPGSSVKVSCKASGGTFSSYAISWVRQAPGQGLEWMGGIIPIFGTANYAQKFQGRVTITADESTSTAYMELSSLRSEDTAVYYCARGVPSGYSSGWFYYFDYWGQGTLVTVSS
VL: EIVMTQSPSSLSASVGDRATLSCRASQSVNTNLAWYQQKPGQAPRLLIYGASTRATGSPARFSGSGSGTEFTLTISSLQPGDFATYYCQQYDNYPLTFGQGTKVEIK
notes: scFv; also called scFv 21
As to B2, in the assay with HLA-DQ2.5:DQ2.5-glia-α2 [1], the Kd stood at 590 nM.

B3: Fab 3.C11 (Fab, V domains shown)
VH: QVQLVQSGAEVKKPGSSVKVSCKASGGTVRSRVHAISWVRQAPGQGLEWMGGIIPIFGTANYAQKFQGRVTITADESTSTAYMELSSLRSEDTAVYYCARDVQRMGMDVWGQGTTVTVSS
VL: DIQMTQSPSSVSTSVGDRVTITCRASQDISNWLAWYQQKPGKAPKLLIYDSSTLQSGVPSRFSGSGSGTDFTLTISTLQPEDFATYYCQQFNSYPLTFGGGTKVDIK
notes: Fab fragment
As to B3, in the assay with HLA-DQ2.5:DQ2.5-glia-α2 [3], the Kd is 0.0904 nM and 0.0946 nM and 0.0806 nM; the koff is 0.000113 s⁻¹ and 0.000112 s⁻¹ and 0.000121 s⁻¹; the on-rate constant (kon) was 1.19e+06 M⁻¹ s⁻¹ and 1.39e+06 M⁻¹ s⁻¹ and 1.34e+06 M⁻¹ s⁻¹. For the same molecule, the dissociation constant (Kd) in the assay with HLA-DQ2.5:DQ2.5-glia-α2 [4] came to 0.088 nM.

B4: Fab 4.7C (Fab, V domains shown)
VH: QVQLQQSGPGLVKPSQTLSLTCAISGDSVSSNSAAWNWIRQSPSRGLEWLGRTYYRSKWYNDYAVSVKSRITINPDTSKNQFSLQLNSVTPEDTAVYYCARDRTTGWHPYGMDVWGQGTTVTVSS
VL: DIQVTQSPSFLSASVGDRVTITCRASHDISSYLAWYQHKPWKAPKLLIHAASILQSGVPSRFSGSGSGTEFTLTISSLQPEDFATYYCQDLNSYPLFGQGTRLEIK
notes: Fab fragment
Consider B4, for which, in the assay with HLA-DQ2.5:DQ2.5-glia-α1a [5], the Kd is 0.197 nM and 0.145 nM; the koff was 0.000177 s⁻¹ and 9.68e-05 s⁻¹; the kon is 901000 M⁻¹ s⁻¹ and 670000 M⁻¹ s⁻¹. In addition, binding in the assay with HLA-DQ2.5:DQ2.5-glia-α1a [6] was put at a Kd of 0.17 nM.

B5: Fab RF117 (Fab, V domains shown)
VH: B4 VH with N32S
VL: B4 VL with I2V, I53V, D90N
notes: Fab fragment; combination mutant of 5.6A with the CDR H3 of 4.7C
For the molecule B5, in the assay with HLA-DQ2.5:DQ2.5-glia-α1a [7], the “fold improvement in affinity against the mother clone 107” value was about 3600 fold. Further, the kon in the assay with HLA-DQ2.5:DQ2.5-glia-α1a [5] is 1.83e+06 M⁻¹ s⁻¹ and 2.05e+06 M⁻¹ s⁻¹. In the assay with HLA-DQ2.5:DQ2.5-glia-α1a [6], this molecule displayed a dissociation constant Kd of 20000 nM.

B6: R3A2-9F scFv (scFv, V domains shown)
VH: B4 VH with R103S, T104S, T105S
VL: B4 VL with W41G
notes: scFv from a naive human phage library, made in E. coli with c-myc and His tags
On to B6, for which the affinity with HLA-DQ2.5:DQ2.5-glia-α1a [8], expressed as Kd, was 142 nM.

B7: R2A1-8E hIgG1 (antibody, V domains shown)
VH: B4 VH with R103S, T104S, T105S
VL: DIQVTQSPSFLSASVGDRVTITCRASHDISSYLAWYQHKPGKAPKLLIHAASILQSGVPSRFSGSGSGTEFTLTISSLQPEDFATYYCQQLNSYPLLTFGGGTKVDIKR
notes: full-length human IgG1/kappa made in HEK293E; heavy chain constant region with N297G; also called mAb R2A1-8E
Take B7: in the assay with HLA-DQ2.5:DQ2.5-glia-α1a [9], the “fold increase in half-life against the scFv” value (“fold increase in half-life” for short) is about 160 fold.

B8: R3A2-9F hIgG1 (antibody)
heavy: not shown
light: DIQVTQSPSFLSASVGDRVTITCRASHDISSYLAWYQHKPGKAPKLLIHAASILQSGVPSRFSGSGSGTEFTLTISSLQPEDFATYYCQDLNSYPLFGQGTRLEIKRTVAAPSVFIFPPSDEQLKSGTASVVCLLNNFYPREAKVQWKVDNALQSGNSQESVTEQDSKDSTYSLSSTLTLSKADYEKHKVYACEVTHQGLSSPVTKSFNRGEC
notes: also called mAb R3A2-9F
With B8, the “fold increase in half-life” value with HLA-DQ2.5:DQ2.5-glia-α1a [9] was about 160 fold.

B9: R4A1-3A (107) hIgG1 (antibody, V domains shown)
VH: B4 VH with R103S, T104S, T105S
VL: DIQVTQSPSFLSASVGDRVTITCRASHDISSYLAWYQHKPWKAPKLLIHAASILQSGVPSRFSGSGSGTEFTLTISSLQPEDFATYYCQDLNSYPLFGQGTRLEIKR
notes: full-length human IgG1/kappa made in HEK293E; heavy chain constant region with N297G; also called mAb R4A1-3A
With B9, the “fold increase in half-life” value with HLA-DQ2.5:DQ2.5-glia-α1a [9] was about 160 fold.

B10: 226 scFv (scFv, V domains shown)
VH: QVQLVQSGAEVKKPGSSVKVSCKASGGTFSSYAISWVRQAPGQGLEWMGGIIPIFGTANYAQKFQGRVTITADESTSTAYMELSSLRSEDTAVYYCARGAGPLWFRELVYFQHWGQGTLVTVSS
VL: EIVMTQSPATLSVSPGERATLSCRVSQNIIKNLAWYQQKPGQAPRLLIYDASTRATGIPARFTGSGSGTEFTLTIDDLQSEDSAVYFCQQYNWWPRFGPGTKVDIK
notes: scFv; also called scFv 26; 261
With B10, the dissociation constant (Kd) with HLA-DQ2.5:DQ2.5-glia-α2 [1] is 170 nM.

B11: 218 scFv (scFv, V domains shown)
VH: QVQLVQSGAEVKKPGSSVKVSCKASGGTFSSYAISWVRQAPGQGLEWMGGIIPIFGTANYAQKFQGRVTITADESTSTAYMELSSLRSEDTAVYYCARGYYYDSSALDYWGQGTLVTVSS
VL: QSALIQPASVSGSPGQSITISCTGTSSDVGGYGYVSWYQHHPGKAPKLIIYDVSNRPSGVSDRFSGSKSANTASLTISGLQTEDEADYYCSSYTSSGTVLFGGGTKLTVL
notes: scFv; also called scFv 18
In the case of B11, the equilibrium dissociation constant (Kd) with HLA-DQ2.5:DQ2.5-glia-α2 [1] stood at 2400 nM. This Kd lies about 14-fold higher than the previous one.

B12: 220 scFv (scFv, V domains shown)
VH: QVQLVESGAEVKKPGSSVKVSCKASGGTFSSYAISWVRQAPGQGLEWMGGIIPIFGTANYAQKFQGRATITADESTSTAYMELSSLRSEDTAVYYCARGRNTYCSGGSCYSPHFDYWGQGTLVTVSS
VL: not shown
notes: scFv; also called scFv20
B12: in the assay with HLA-DQ2.5:DQ2.5-glia-α2 [1], binding was put at a Kd of 730 nM.
